System: Human brain microvascular endothelial cerebral cells (HBMEC)
Test: Toxicity of human Aβ1-42 peptide on HBMEC: total length of capillary network
Type: cell-based
Details: VEGF 10 nM, 1 h pre-treatment; Aβ1-42 2.5 μM, 18 h
Protocol: Human brain microvascular endothelial cell cultures were used to study the protection afforded by candidate compound(s) on Aβ1-42 toxicity.
Human brain microvascular endothelial cerebral cells (HBMEC, ScienCell Ref: 1000, frozen at passage 10) were rapidly thawed in a waterbath at +37° C. The supernatant was immediately put in 9 ml Dulbecco's modified Eagle's medium (DMEM; Pan Biotech ref: P04-03600) containing 10% of foetal calf serum (FCS; GIBCO ref 10270-106). […]
• Negative Control: medium alone+0.1% DMSO • Intoxication: amyloid-β1-42 (2.5 μM) for 18 h • Positive control: VEGF-165 (10 nM) (1 reference compound/culture) 1 hr before the Aβ1-42 (2.5 μM) addition for a 18 h incubation time. • Test compounds: Test compound(s) 1 hr before the Aβ1-42 (2.5 μM) addition for a 18 h incubation time. Capillary Network Quantification
Per well, 2 pictures with 4× lens were taken using InCell Analyzer™ 1000 (GE Healthcare) in light transmission. […] The total length of capillary network was assessed.
Data were expressed in percentage of control conditions (no intoxication, no amyloid=100%) in order to express the amyloid injury. All values were expressed as mean+/−SEM (s.e.mean) of the 3 cultures (n=6 wells per condition). […]

VEGF
protection of capillary network (% of capillary network compared to amyloid intoxication): 70%

Reference: patent publication US8741886B2, “Baclofen and acamprosate based therapy of neurological disorders” (Pharnext, priority 2011, dated 2014)
